Amino acid sequences for entries named in this document (tags omitted).
UniProt P53350, whole entry, looked up: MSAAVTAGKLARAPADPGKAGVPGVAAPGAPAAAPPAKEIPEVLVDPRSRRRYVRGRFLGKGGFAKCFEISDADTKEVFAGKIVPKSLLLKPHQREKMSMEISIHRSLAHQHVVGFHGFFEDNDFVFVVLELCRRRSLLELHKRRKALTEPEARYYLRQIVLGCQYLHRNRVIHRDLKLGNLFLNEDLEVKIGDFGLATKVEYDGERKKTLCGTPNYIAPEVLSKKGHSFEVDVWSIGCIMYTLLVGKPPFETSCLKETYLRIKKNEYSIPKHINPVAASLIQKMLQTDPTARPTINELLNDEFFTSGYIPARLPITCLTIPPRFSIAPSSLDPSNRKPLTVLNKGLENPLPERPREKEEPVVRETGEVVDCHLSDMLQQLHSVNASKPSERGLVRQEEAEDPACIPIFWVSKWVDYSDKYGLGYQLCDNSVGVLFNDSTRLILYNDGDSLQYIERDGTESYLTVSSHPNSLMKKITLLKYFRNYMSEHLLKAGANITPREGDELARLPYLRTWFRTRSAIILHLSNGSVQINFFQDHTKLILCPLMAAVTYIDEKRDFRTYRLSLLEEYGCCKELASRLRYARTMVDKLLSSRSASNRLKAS

Only a part is listed here, and it is no random draw. Records with an inconclusive call do not appear. The source made the active and inactive calls. The call rests on the fitted dose curve; in most records, active means well fitted inhibition curve with a large enough effect; inconclusive means small, poorly fitted or top-dose-only effect; inactive means flat fitted curve, though single readings scatter.
These molecules were tested against Serine/threonine-protein kinase PLK1 (Homo sapiens) (UniProt P53350) (assay: qHTS for Inhibitors of PLK1-PDB (polo-like kinase 1 - polo-box domain): Primary Screen). Conditions: Plk1 PBD binding of FITC phosphopeptide, fluorescence polarization.
In the case of `NC(=O)c1cc([N+](=O)[O-])cc([N+](=O)[O-])c1N`, the max response, negative = inhibition is reported as inactive: -9.52%.
For `Cc1ccc(N/C(=N/P(=O)(N2CCOCC2)N2CCOCC2)N2CCOCC2)cc1`, the max response, negative = inhibition was inactive: -7.9%.
`CN(C(=O)Cc1ccc(Cl)c(Cl)c1)[C@H]1CCCC[C@H]1N1CCCC1` was tested, and the max response, negative = inhibition was inactive: -6.95%.
In the case of `Cc1ccc(OP(=O)(Nc2nccs2)Oc2ccc(C)cc2)cc1`, the max response, negative = inhibition is reported as inactive: 2.14%.
In the case of `COc1ccccc1OP(=O)(Nc1ccc(C)cn1)Oc1ccccc1OC`, the max response, negative = inhibition is reported as inactive: -12.7%.
With `CN1CCCC(OC(=O)C(c2ccccc2)c2ccccc2)C1` (stereo not given) the max response, negative = inhibition was inactive: -7.73%.
`Nc1cc(N)c2nonc2c1[N+](=O)[O-]` was tested, and the max response, negative = inhibition was inactive: 3.57%.
With `CC(C)CC(=O)NC(Sc1ccc(Cl)cc1)C(Cl)(Cl)Cl` (stereo not given) the max response, negative = inhibition was inactive: -10.2%.
With `O=C(NC(Sc1ccncn1)C(Cl)(Cl)Cl)c1ccccc1` (stereo not given) the Potency was active: 11.9 µM.
For `Oc1ccccc1CNc1ccccn1`, the max response, negative = inhibition was inactive: 1.22%.
For `O=[N+]([O-])C1C(O)C(O)C([N+](=O)[O-])C(O)C1O` (stereo not given), the max response, negative = inhibition was inactive: -2.97%.
With `CCCC1OP(N)(=O)OCC1CC` (stereo not given) the max response, negative = inhibition was inactive: 1.05%.
In the case of `O=C(O)c1ccccc1[As](=O)(O)O`, the max response, negative = inhibition is reported as inactive: -22.1%.
In the case of `O=P(Nc1nc2ccc(Cl)cc2s1)(c1ccccc1)c1ccccc1`, the max response, negative = inhibition is reported as inactive: -15.6%.
In the case of `CN(C)P(=O)(N(C)C)n1c(Nc2ccccc2)nnc1-c1ccccc1`, the max response, negative = inhibition is reported as inactive: -9.07%.
For `CN(C(=O)Cc1ccc(Cl)c(Cl)c1)[C@H]1CCCC[C@@H]1N1CCCC1`, the max response, negative = inhibition was inactive: -4.08%.
For `Cc1ccc(NP(=O)(Oc2ccccc2F)Oc2ccccc2F)nc1`, the max response, negative = inhibition was inactive: -8%.
`Cc1cc(SC(NC(=O)c2ccc(F)cc2)C(Cl)(Cl)Cl)ncn1` (stereo not given) was tested, and the Potency was active: 26.7 µM.
For `CCOP(=O)(Nc1ccccc1)OCC`, the max response, negative = inhibition was inactive: -0.773%.
`CCN(N=Nc1nonc1N)c1nonc1N` was tested, and the max response, negative = inhibition was inactive: -3.09%.
In the case of `Nc1cccc2ccc([As](=O)(O)O)cc12`, the max response, negative = inhibition is reported as inactive: -8.11%.
In the case of `O=P1(N(CCCl)CCCl)OCCCS1` (stereo not given), the max response, negative = inhibition is reported as inactive: -3.49%.
With `O=C(Nc1cc([As](=O)(O)O)ccc1O)c1ccccc1` the max response, negative = inhibition was inactive: -9.17%.
In the case of `CC(C)(C)C(=O)NC(Sc1ccncn1)C(Cl)(Cl)Cl` (stereo not given), the Potency is reported as active: 11.9 µM.
For `O=[N+]([O-])c1ncn(CCn2ncnc2[N+](=O)[O-])n1`, the max response, negative = inhibition was inactive: 2.22%.
In the case of `COC(=O)C1(C)COP(=O)(Nc2ccccc2)OC1` (stereo not given), the max response, negative = inhibition is reported as inactive: -4.66%.
`O=[N+]([O-])c1cccc(NC2=NCC(CBr)S2)c1` (stereo not given) was tested, and the Potency was active: 11.9 µM.
In the case of `O=C(O)CNc1ccc([As](=O)(O)O)cc1`, the max response, negative = inhibition is reported as inactive: -6.05%.
For `CC(=O)N1C2C3N(C(C)=O)C1C1N(C(C)=O)C(C(N1C(C)=O)N3C(C)=O)N2C(C)=O`, the max response, negative = inhibition was inactive: -7.07%.
With `O=[N+]([O-])c1cccc2n[nH]nc12` the max response, negative = inhibition was inactive: -10.9%.
For `O=[N+]([O-])c1cc([N+](=O)[O-])c(CCNc2ccccc2)c([N+](=O)[O-])c1`, the max response, negative = inhibition was inactive: -17.2%.
With `CCc1nc2c(n1)c1c(non1O)c1c2no[n+]1[O-]` the max response, negative = inhibition was inactive: -1.62%.
With `Cc1ccc(NP(=O)(Oc2ccccc2)Oc2ccccc2)nc1` the max response, negative = inhibition was inactive: -2.88%.
For `Nc1ccc([As](=O)(O)c2ccc(N)cc2)cc1`, the max response, negative = inhibition was inactive: 6.46%.
In the case of `CCN(/C(=N/P(=O)(N1CCOCC1)N1CCOCC1)N1CCOCC1)c1ccc(OC)cc1`, the max response, negative = inhibition is reported as inactive: -2.92%.
For `CN(C)C(=O)OCCc1n(C)cc[n+]1C`, the max response, negative = inhibition was inactive: 4.69%.
With `CC(C)c1nc(Nc2ccccc2)n(P(=O)(N(C)C)N(C)C)n1` the max response, negative = inhibition was inactive: -0.07%.
`CC(C)=N/N=C(\N)N[N+](=O)[O-]` was tested, and the max response, negative = inhibition was inactive: 1.83%.
With `CC1CCN(C(=O)Oc2c(Cl)cc(Cl)c3cccnc23)CC1` the max response, negative = inhibition was inactive: 1.46%.
In the case of `c1cc(-c2nn[nH]n2)ccc1-c1nn[nH]n1`, the max response, negative = inhibition is reported as inactive: -3.71%.
In the case of `O=P(Nc1nccs1)(c1ccccc1)c1ccccc1`, the max response, negative = inhibition is reported as inactive: -1.57%.
For `CC(C)C(=O)NC(Sc1ccccc1)C(Cl)(Cl)Cl` (stereo not given), the max response, negative = inhibition was inactive: -4.49%.
In the case of `c1nnnn1CCn1cnnn1`, the max response, negative = inhibition is reported as inactive: -2.87%.
For `COc1ccc(N)c([N+](=O)[O-])c1[N+](=O)[O-]`, the max response, negative = inhibition was inactive: -29.1%.
With `Nc1ccc(CCCCOc2ccccc2)cc1` the max response, negative = inhibition was inactive: -9.93%.
For `CN(C)C1(CNC(=O)c2ccc(Cl)c(S(N)(=O)=O)c2)CCCCC1`, the max response, negative = inhibition was inactive: 3.23%.
`O=P(Nc1ccccn1)(c1ccc(Br)cc1)c1ccc(Br)cc1` was tested, and the max response, negative = inhibition was inactive: -4.79%.
With `C[C@H]1OP(=O)(Oc2ccccc2)[C@H](O)[C@H](O)[C@H]1N=[N+]=[N-]` (stereo not given in full) the max response, negative = inhibition was inactive: -13.6%.
With `O=P(Nc1nc2ccccc2s1)(c1ccccc1)c1ccccc1` the max response, negative = inhibition was inactive: -27.5%.
For `O=[N+]([O-])c1ncn(CCn2cnc([N+](=O)[O-])n2)n1`, the max response, negative = inhibition was inactive: -13%.
In the case of `O=[N+]([O-])c1ccc(O)c(/C=N/Nc2ccc([N+](=O)[O-])cc2[N+](=O)[O-])c1`, the max response, negative = inhibition is reported as inactive: -28.7%.
`O=[As](O)(c1ccccc1)c1ccc(O)cc1` was tested, and the max response, negative = inhibition was inactive: 1.76%.
For `C(Cc1nn[nH]n1)Cc1nn[nH]n1`, the max response, negative = inhibition was inactive: -7.8%.
`Nc1ccc([As](=O)(O)c2ccc([N+](=O)[O-])cc2)cc1` was tested, and the max response, negative = inhibition was inactive: -9.15%.
With `O=C(OC1CN2CCC1CC2)c1cccc(Cl)c1` (stereo not given) the max response, negative = inhibition was inactive: -0.591%.
`O=C(NC1CCS(=O)(=O)C1)NP(=S)(Oc1ccccc1)Oc1ccccc1` (stereo not given) was tested, and the max response, negative = inhibition was inactive: -9.23%.
With `CCNC(=S)/N=C(\N)N[N+](=O)[O-]` the max response, negative = inhibition was inactive: 4.04%.
In the case of `Cc1ccc(NP(=O)(Oc2cccc(C)c2)Oc2cccc(C)c2)nc1`, the max response, negative = inhibition is reported as inactive: 2.61%.
With `c1ccc(-c2nn[nH]n2)c(-c2nn[nH]n2)c1` the max response, negative = inhibition was inactive: -10.5%.
With `O=P1(N(CCCl)CCCl)OCCC2CCCCN21` (stereo not given) the max response, negative = inhibition was inactive: -1.34%.
In the case of `CC(=O)NC(SC(=S)N(CC(C)C)CC(C)C)C(Cl)(Cl)Cl` (stereo not given), the max response, negative = inhibition is reported as inactive: -28%.
In the case of `Cc1ccc(OP(=O)(Nc2ccccn2)Oc2ccc(C)cc2)cc1`, the max response, negative = inhibition is reported as inactive: -22.3%.
For `COC(=O)c1cc2c(s1)N=C(c1ccccc1)N(C)P2(=O)N1CCOCC1` (stereo not given), the max response, negative = inhibition was inactive: 3.03%.
`CCC(=O)N1C2C3N(C(=O)CC)C1C1N(C(=O)CC)C(C(N1C(=O)CC)N3C(=O)CC)N2C(=O)CC` was tested, and the max response, negative = inhibition was inactive: 0.992%.
With `O=C(OC1CN2CCC1CC2)c1ccccc1` (stereo not given) the max response, negative = inhibition was inactive: -1.08%.
Further: nearly all actives have a fitted effect of over 65% in size.
On the % scale 0 is the no-effect control and ±100 the full control effect; potency means the concentration at half of the fitted maximal effect.
Wherever max response, negative = inhibition is given: series mostly up to about 57 µM.
